Data taken from ChEMBL document CHEMBL5046293 (J Med Chem, 2022).

By UniProt entry, the sequences of proteins in these tests, tags left out. Where a name states a change or a piece, a line headed by the entry shows the natural chain unless it says otherwise.
UniProt P22303: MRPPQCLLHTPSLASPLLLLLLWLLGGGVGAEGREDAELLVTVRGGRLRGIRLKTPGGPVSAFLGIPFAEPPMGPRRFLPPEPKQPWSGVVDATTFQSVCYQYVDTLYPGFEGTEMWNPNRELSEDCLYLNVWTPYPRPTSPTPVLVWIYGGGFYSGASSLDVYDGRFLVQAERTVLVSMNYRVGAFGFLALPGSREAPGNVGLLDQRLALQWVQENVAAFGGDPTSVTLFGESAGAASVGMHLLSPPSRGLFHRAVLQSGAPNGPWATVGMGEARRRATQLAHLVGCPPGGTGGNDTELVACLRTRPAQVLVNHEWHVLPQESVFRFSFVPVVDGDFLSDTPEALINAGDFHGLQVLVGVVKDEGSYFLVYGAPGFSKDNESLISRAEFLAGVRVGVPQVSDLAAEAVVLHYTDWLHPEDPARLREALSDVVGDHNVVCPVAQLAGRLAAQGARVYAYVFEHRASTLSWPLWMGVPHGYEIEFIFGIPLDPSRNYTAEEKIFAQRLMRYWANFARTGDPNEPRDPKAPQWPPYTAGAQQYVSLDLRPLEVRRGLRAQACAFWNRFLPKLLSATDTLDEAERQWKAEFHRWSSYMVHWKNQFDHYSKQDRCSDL

Legend:
[1] = target: Acetylcholinesterase (Homo sapiens) (UniProt P22303); test: Reactivation of NIMP-inhibited recombinant His-TEV-tagged human AChE expressed in CHO-K1 cells assessed as reactivation constant, Kr by measuring thiophenol levels by UV-vis absorption spectroscopy; settings: filed as activator
[2] = target: Acetylcholinesterase (Homo sapiens) (UniProt P22303); test: Reactivation of NEDPA-inhibited recombinant His-TEV-tagged human AChE expressed in CHO-K1 cells assessed as reactivation constant, Kr2 by measuring thiophenol levels by UV-vis absorption spectroscopy; settings: filed as activator
[3] = target: Acetylcholinesterase (Homo sapiens) (UniProt P22303); test: Reactivation of NIMP-inhibited recombinant His-TEV-tagged human AChE expressed in CHO-K1 cells assessed as reactivation constant, KD by measuring thiophenol levels by UV-vis absorption spectroscopy; settings: filed as activator
[4] = target: Acetylcholinesterase (Homo sapiens) (UniProt P22303); test: Inhibition of recombinant His-TEV-tagged human AChE expressed in CHO-K1 cells using acetylthiocholine iodide as substrate at 5 mM measured for 6 mins by Ellman's method relative to control
[5] = target: Acetylcholinesterase (Homo sapiens) (UniProt P22303); test: Reactivation of VX-phosphylated human AChE in ChE-inactivated mouse plasma using acetylthiocholine as substrate upto 500 uM incubated for 30 mins by Ellman's method relative to control; settings: dose microM <=500, time 30.0 min
[6] = target: Acetylcholinesterase (Homo sapiens) (UniProt P22303); test: Reactivation of NEMP-inhibited recombinant His-TEV-tagged human AChE expressed in CHO-K1 cells assessed as reactivation constant, KD by measuring thiophenol levels by UV-vis absorption spectroscopy; settings: filed as activator

SMILES	K [1] [min⁻¹]	K [2] [mM/min]	K [3] [mM]	inhibition [4] [%]	Emax [5] [%]	K [6] [mM]
OC[C@H]1O[C@@H](OCCCc2ccc(O)c(/C=N/O)n2)[C@H](O)[C@@H](O)[C@@H]1O	0.2	2	2	–	–	–
OC[C@H]1O[C@@H](OCCCCc2cn(CCCc3ccc(O)c(/C=N/O)n3)nn2)[C@H](O)[C@@H](O)[C@@H]1O	0.2	–	13	–	–	–
OC[C@H]1O[C@@H](OCCCCc2ccc(O)c(/C=N/O)n2)[C@H](O)[C@@H](O)[C@@H]1O	0.2	–	1	97	–	–
OC[C@H]1O[C@@H](OCCCCc2cn(CCCCc3ccc(O)c(/C=N/O)n3)nn2)[C@H](O)[C@@H](O)[C@@H]1O	0.7	–	2	–	2.5	1
C[n+]1ccccc1C=NO	0.24	–	0.2	–	–	–
OC[C@H]1O[C@H](OCCCCc2cn(CCCCc3ccc(O)c(/C=N/O)n3)nn2)[C@H](O)[C@@H](O)[C@@H]1O	0.4	–	2	–	3.3	1
